# Experimental data taken from PubChem BioAssay AID493195 (Broad Institute, 2011).
# The entries are a selection whose mix differs from that of the whole data set. The source made the active and inactive calls.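 How the source made its calls: active means fitted dose curve reaching 40% activation within the tested dose range; inconclusive means no clear call, values can overlap the other calls; inactive means the rest, or activity opposite the expected rise.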
# Test: HIF pathway transcriptional activation – cell-based, luminescence, U2OS HRE-luc, dry powder, set 6, dose response (AID 493195)
# Settings: U2OS HRE-luciferase reporter, at 38 µM (top of the series)
# Summary of the method: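 Test system: human U2OS osteosarcoma cells stably carrying 3×HRE-luciferase reporter. Input: 6,000 cells per well. Times: 24 h compound exposure at 37 °C. Detection: Steady-Glo luciferase luminescence.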
smiles,measurement,value
O=c1[nH]c2ccccc2n1C1CCN(Cc2ccc(O)c3ncccc23)CC1,activation,inactive: 1.24%
